Two compounds from patent US12264139B2, “Aryl sulfonamides as BLT1 antagonists” (Merck Sharp & Dohme LLC, priority 2015, dated 2025) can be followed below.

Sequences of proteins named here, by UniProt entry; tags and fusion partners are left off. A change or cut given only in a name is not applied to a line headed by its entry.
UniProt Q15722: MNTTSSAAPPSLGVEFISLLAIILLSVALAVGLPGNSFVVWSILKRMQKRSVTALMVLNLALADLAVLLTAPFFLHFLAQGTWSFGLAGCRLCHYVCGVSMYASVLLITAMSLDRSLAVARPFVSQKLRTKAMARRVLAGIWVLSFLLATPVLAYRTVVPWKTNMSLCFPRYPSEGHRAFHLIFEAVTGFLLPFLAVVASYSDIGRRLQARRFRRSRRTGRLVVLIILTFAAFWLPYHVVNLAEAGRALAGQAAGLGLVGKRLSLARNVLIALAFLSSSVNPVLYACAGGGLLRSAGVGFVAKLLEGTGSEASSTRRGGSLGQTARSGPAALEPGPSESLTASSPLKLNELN

In this assay the target is T1, human BLT1 receptor (Homo sapiens, UniProt Q15722).
T1 construct: expressed in transfected cells; host or cells: HEK293
The experiment in a line: BLT-1 cAMP Assay. The class given is cell-based. Particulars: HEK293 cells recombinantly expressing human BLT1, antagonist activity vs forskolin 4 μM and LTB4 2 nM, cAMP (CisBio kit). As to the method:
The ability of compounds to antagonize the human BLT1 receptor was determined using a kit to measure changes in intracellular cyclic AMP levels (cAMP dynamic assay kit, Cisbio Cat. No. 62AM4PEC). […] The cell suspension was centrifuged at 200×g for 10 min and then resuspended in fresh assay medium to a density of 2.5×10^5 cells/mL. […] All subsequent liquid additions were performed using a BIORAPTR (FRD; Beckman Coulter). Next, 5 μL of cell suspension was added and incubated for 20 min. at 37° C. and 5% CO2 in a humidified plastic tray.
The levels of cAMP were detected using the CisBio kit following the manufacturer's instructions: cAMP-d2 vial was reconstituted with distilled water and then diluted accordingly with conjugate & lysis buffer. 5 µL of cAMP-d2 working solution was added to all of the wells of the assay plate. cAMP-Cryptate vial was reconstituted with distilled water and then diluted accordingly with conjugate & lysis buffer. 5 µL of cAMP-Cryptate working solution were added to the assay plate. The assay plate was shaken for 3 minutes and incubated at room temperature for 45 minutes, then read on Perkin Elmer Envision. cAMP standard curve and fit data were plotted using a 4 parameter dose response curve fitting algorithm to fit curve. […] After normalization to treated and untreated controls, the percent effect of signal at each compound concentration was calculated. […]

Molecules are shown by their SMILES. Read-outs that look alike come from different tables or passages of the source.

As to `O=S(=O)(Nc1ccccc1-c1ccc2c(c1)OC[C@@H](Cc1ccnn1-c1ccccc1)[C@@H]2O)C(F)(F)F` (racemic) [Example 48, 1,1,1-Trifluoro-N-(2-((rac-trans)-4-hydroxy-3-((1-phenyl-1H-pyrazol-5-yl)methyl)chroman-7-yl)phenyl)methanesulfonamide], where the note is “read-out: EC50 (nM) BLT-1 cAMP Assay”, the EC50 (in general, the concentration needed to bring the measured effect to its halfway point) came out at 870 nM.
As to `O=S(=O)(Nc1ccccc1-c1ccc2c(c1)OC[C@@H](Cc1ccnn1-c1ccccc1)[C@@H]2O)C(F)(F)F` (relative stereo) [Example 49, (2-((3,4-trans)-4-hydroxy-3-((1-phenyl-1H-pyrazol-5-yl)methyl)chroman-7-yl)phenyl)((trifluoromethyl)sulfonyl)amide], the 50% effective concentration (EC50) (EC50 (nM) BLT-1 cAMP Assay) is 275 nM.
